In patent US5478807A, “Use of relaxin in the treatment of bradycardia” (Genentech, Inc., priority 1992, dated 1995):

Tested on: rat isolated heart
Assay: Chronotropy and inotropy in Langendorff rat isolated heart
Details: intact preparations; 150 pMol

With `CNCC(O)c1ccc(O)c(O)c1.O=C(O)C(O)C(O)C(=O)O` (stereo not shown) [adrenaline, Adrenaline bitartrate, reference compound] the “maximal attainable beating rate” value was 349±8 bpm.
